Test results as given in US20240150372A1 (priority 2021, published 2024).

What was measured:
male F344 rats = experiment: Fentanyl intravenous self-administration; conditions: single injection 40 mg/kg
[1] = Body mass measurements during the fentanyl intermittent access study; conditions: repeated administration
Fisher F-344 rats = experiment: Intermittent access fentanyl self-administration with progressive ratio probes

CCC1CC2CC3c4oc5ccc(O)cc5c4CCN(C2)C13 (stereo not shown) [oxa-noribogaine]
duration of observable suppression trends of fentanyl intake (male F344 rats): at least 5 days
duration of statistically significant suppression of fentanyl intake (male F344 rats): 4 days
body weight [1]: no effect on the body weight of test subjects
decrease in PR breaking point value post treatment (Fisher F-344 rats; subject #739): 228%
increase in PR breaking point value post treatment (Fisher F-344 rats; subject #741): 12%
decrease in PR breaking point value post treatment (Fisher F-344 rats; subject #746): 659%
decrease in PR breaking point value post treatment (Fisher F-344 rats; subject #756): 47%
